Measurements: PubChem BioAssay AID1899 (The Scripps Research Institute Molecular Screening Center, 2009)
The list shows a part of the results, in another mix than the full data. Some tests of the compounds listed are not included; inactive here does not mean inactive elsewhere. Active and inactive are the calls of the source.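 The calls were made as follows: active = inhibition above the mean of all tested compounds plus 3 SD, set per screening campaign (cut at about 45% in these data); inactive = the rest.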

Test system: HCV core protein (residues 1-106) dimerization
Assay: blockers of core106 self-association – biochemical, TR-FRET, high-throughput, primary screen (AID 1899)
Conditions: TR-FRET GST/Flag-core106 dimerization, 1536-well; at 5 µM; active compounds read high
Procedure, shortened: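 Assay system: Tagged HCV core106 pair (GST and Flag) | Buffer or medium: KF-containing HEPES buffer, pH 7.45, DTT, CHAPS, BSA | Also added: Eu donor and XL665 acceptor anti-tag antibodies | Dosing: One concentration, 5 µM, in 0.5% DMSO | Timing: 4 h at 22.5 °C | Technique: TR-FRET 671 and 617 nm emission | Repeats: Singlicate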

Row | Compound | inhibition
1 | COc1ccc(C(=O)NCC2(N(C)C)CCCCC2)cc1 | inactive: -7.27%
2 | CCN1CCCC(OC(=O)C2(O)c3ccccc3C=Cc3ccccc32)C1 (centres undefined) | inactive: -3.75%
3 | Cc1cc(C(=O)NCC2(N3CCCCC3)CCCCC2)ccc1[N+](=O)[O-] | inactive: -13.1%
4 | O=C(NCC1(N2CCCCC2)CCCCC1)c1cccc(Br)c1 | inactive: -4.16%
5 | C=CCN1CCN(CCOC(=O)C(O)(c2ccccc2)c2ccccc2)CC1 | inactive: -3.54%
6 | O=C(NCC1(N2CCCCC2)CCCCC1)c1cc(F)c(F)cc1Cl | inactive: 1.03%
7 | Cc1ccccc1C(=O)NCC1(N2CCCCC2)CCCCC1 | inactive: -2.87%
8 | CN(C)c1ccc(C(=O)NCC2(N(C)C)CCCCC2)cc1 | inactive: -2.63%
9 | CN(C)C1CCCC1OC(=O)C(O)(c1ccccc1)c1ccccc1 (centres undefined) | inactive: -1.52%
10 | Cc1ccc(C(=O)NCC2(N3CCCCC3)CCCCC2)cc1 | inactive: 5.51%
11 | CCN(CC)CC(C)C(C)OC(=O)C(O)(c1ccccc1)c1ccccc1 (centres undefined) | inactive: -1.55%
12 | COc1cc(SC)ccc1C(=O)NCC1(N(C)C)CCCCC1 | inactive: -0.6%
13 | CC(C)N1C(=O)CC2(CCN(CCOC(=O)C(O)(c3ccccc3)c3ccccc3)CC2)C1=O | inactive: -8.54%
14 | CN1[C@@H]2CC[C@H]1CC(OC(=O)C(O)(c1ccccc1)c1ccccc1)C2 (some centres undefined) | inactive: 10.3%
15 | O=C(NCC1(N2CCCCC2)CCCCC1)c1cc([N+](=O)[O-])ccc1Cl | inactive: -1.01%
16 | CC(C)Oc1ccc(C(=O)NCC2(N(C)C)CCCCC2)cc1 | inactive: -5.4%
17 | CN(C)c1cccc(C(=O)NCC2(N(C)C)CCCCC2)c1 | inactive: -2.57%
18 | COc1ccc(Br)c(C(=O)NCC2(N3CCCCC3)CCCCC2)c1 | inactive: -1.11%
19 | O=C(OC1CN2CCC1CC2)C(CO)(c1ccccc1)c1ccccc1 (centres undefined) | inactive: -2.03%
20 | O=C(NCC1(N2CCCCC2)CCCCC1)c1cccc(Cl)c1 | inactive: -6.49%
21 | COc1cccc(C(=O)NCC2(N3CCCCC3)CCCCC2)c1 | inactive: -2.97%
22 | COc1ccc(Cl)cc1C(=O)NCC1(N(C)C)CCCCC1 | inactive: -0.33%
23 | COc1cc(C(=O)NCC2(N(C)C)CCCCC2)c([N+](=O)[O-])cc1OC | inactive: 5.11%
24 | CN(C)C1(CNC(=O)c2ccc(Br)cc2)CCCCC1 | inactive: 2.66%
